Molecular target: Interstitial collagenase (Homo sapiens, UniProt P03956)
Details: pH 7.5

By UniProt entry, the sequences of proteins in these tests, tags left out. Residues count along the entry.
UniProt P03956, 100-469 limits assumed: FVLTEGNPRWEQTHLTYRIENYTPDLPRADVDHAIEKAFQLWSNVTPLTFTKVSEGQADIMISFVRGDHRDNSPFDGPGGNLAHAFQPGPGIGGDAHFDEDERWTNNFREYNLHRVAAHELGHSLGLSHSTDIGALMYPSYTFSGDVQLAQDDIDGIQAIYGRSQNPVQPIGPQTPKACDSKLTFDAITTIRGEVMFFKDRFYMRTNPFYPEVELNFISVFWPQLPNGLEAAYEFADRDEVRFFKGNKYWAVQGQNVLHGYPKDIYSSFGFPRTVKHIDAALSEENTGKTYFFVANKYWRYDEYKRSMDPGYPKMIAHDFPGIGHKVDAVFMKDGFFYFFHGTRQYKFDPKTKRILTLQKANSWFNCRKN

| SMILES | Ki [µM] |
| --- | --- |
| CCOP(=O)(O)N[C@@H](CC(C)C)C(=O)O | 950 |
| CCOP(=O)(O)N[C@H](C(=O)O)[C@@H](C)CC | 990 |

— BindingDB's records for 2153207
